Laboratory results taken from patent US20230310653A1, “THERAPEUTIC AGENT FOR EGFR GENE MUTATION-POSITIVE LUNG CANCER COMPRISING REIC/Dkk-3 GENE” (Momotaro-Gene Inc., priority 2020, published 2023).

System: lung cancer cells of the Egfr gene mutation-positive lung cancer-carrying mouse (C57BL/6/EgfrdelE748-A752)
Experiment: Experiment 1: subcutaneous tumor model, Gefitinib in combination with intratumoral Ad-SGE-REIC
Set-up: species or system mouse (C57BL/6J)
Details: in vivo
Description: Full-length complementary DNA of the human REIC/Dkk-3 gene was integrated into a cosmid vector pAxCAwt, and the vector was then transferred into an adenovirus vector in accordance with the COS-TPC method (Takara Bio, Shiga, Japan). Subsequently, 3 enhancers; i.e., hTERT, SV40, and CMV, were added to a site downstream of the poly A sequence of the inserted REIC/Dkk-3 gene to obtain an adenovirus vector comprising the REIC/Dkk-3 gene introduced thereinto (Ad-REIC). As a control vector, an adenovirus vector comprising the LacZ gene introduced thereinto (Ad-LacZ) was used.
A subcutaneous tumor model was prepared by transplanting lung cancer cells of the Egfr gene mutation-positive lung cancer-carrying mouse (C57BL/6/EgfrdelE748-A752) (Ohash K. et al., Cancer Sci., 99, 1747, 2008) subcutaneously into both back regions of C57BL/6J (Higo, H. et al., Lung Cancer., 136, 86, 2019). When the tumor volume reached approximately 100 to 150 mm^3, the four experiments described below were performed (FIG. 1).
Gefitinib (50 mg/kg/day) was administered orally for consecutive 14 days, Ad-SGE-REIC* (1.0 × 10^9 ifu/day, days 1, 4, 7, 15, and 18) was selectively administered intratumorally on one side, and anti-tumor effects were evaluated (FIG. 1A). […]

COc1cc2ncnc(Nc3ccc(F)c(Cl)c3)c2cc1OCCCN1CCOCC1 [Gefitinib]
growth of tumors on the both sides: suppressed | tumor regrowth upon termination of administration: tumor regrowth was observed
